Data published in ChEMBL document CHEMBL1145459, “Novel vanilloid receptor-1 antagonists: 2. Structure-activity relationships of 4-oxopyrimidines leading to the selection of a clinical candidate” (J Med Chem, 2007).

By UniProt entry, the sequences of proteins in these tests, tags left out.
UniProt O35433, whole entry: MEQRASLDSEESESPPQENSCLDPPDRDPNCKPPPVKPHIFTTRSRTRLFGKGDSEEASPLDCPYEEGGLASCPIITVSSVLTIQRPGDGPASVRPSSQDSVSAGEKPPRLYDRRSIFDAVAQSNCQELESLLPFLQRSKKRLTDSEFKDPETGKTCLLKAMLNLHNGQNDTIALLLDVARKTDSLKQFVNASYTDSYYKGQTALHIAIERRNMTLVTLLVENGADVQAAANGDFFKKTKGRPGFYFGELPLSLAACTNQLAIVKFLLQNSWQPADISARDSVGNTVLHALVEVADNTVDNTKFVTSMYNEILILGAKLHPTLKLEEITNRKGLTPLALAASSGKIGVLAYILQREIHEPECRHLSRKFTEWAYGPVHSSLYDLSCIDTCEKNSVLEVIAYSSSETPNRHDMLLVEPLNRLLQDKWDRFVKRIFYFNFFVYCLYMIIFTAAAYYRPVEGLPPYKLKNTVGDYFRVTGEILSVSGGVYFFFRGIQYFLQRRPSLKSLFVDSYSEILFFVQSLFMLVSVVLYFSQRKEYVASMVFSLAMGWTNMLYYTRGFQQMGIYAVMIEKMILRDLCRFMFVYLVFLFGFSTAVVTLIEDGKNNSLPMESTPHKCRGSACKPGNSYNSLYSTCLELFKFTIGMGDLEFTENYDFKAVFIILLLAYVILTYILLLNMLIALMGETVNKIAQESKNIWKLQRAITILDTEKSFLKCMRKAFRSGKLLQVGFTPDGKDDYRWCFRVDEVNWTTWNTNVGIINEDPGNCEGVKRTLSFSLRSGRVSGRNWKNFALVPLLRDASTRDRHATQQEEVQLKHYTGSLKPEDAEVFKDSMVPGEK

Target: Transient receptor potential cation channel subfamily V member 1 (Rattus norvegicus, UniProt O35433)
Experiment: Antagonist activity at rat TRPV1 expressed in CHO cells assessed as inhibition of capsaicin-induced calcium influx
Assay type: functional, cell-based

Row | IC50 | SMILES
1 | 730 nM | FC(F)(F)c1ccc(-c2cc(Oc3ccc4ccccc4n3)ncn2)cc1
2 | 1100 nM | CCC(=O)Nc1nc2c(Oc3cc(-c4ccc(C(F)(F)F)cc4)ncn3)cccc2s1
